From patent US8383386

Molecular target: prothrombin, P00734

B1: recombinant factor Xa variant Val17→Ala (protein)
chain 1: ANSFLEEMKKGHLERECMEETCSYEEAREVFEDSDKTNEFWNKYKDGDQCETSPCQNQGKCKDGLGEYTCTCLEGFEGKNCELFTRKLCSLDNGDCDQFCHEEQNSVVCSCARGYTLADNGKACIPTGPYPCGKQTLER
chain 2: IAGGQECKDGECPWQALLINEENEGFCGGTILSEFYILTAAHCLYQAKRFKVRVGDRNTEQEEGGEAVHEVEVVIKHNRFTKETYDFDIAVLRLKTPITFRMNVAPACLPERDWAESTLMTQKTGIVSGFGRTHEKGRQSTRLKMLEVPYVDRNSCKLSSSFIITQNMFCAGYDTKQEDACQGDSGGPHVTRFKDTYFVTGIVSWGEGCARKGKYGIYTKVTAFLKWIDRSMKTRGLPKAKSHAPEVITSSPLK
- Km ± SD (µM), prothrombin cleavage by FXa assembled in prothrombinase: 0.47 µM
- Vmax/Et ± SD (nM IIa/min/nM E), prothrombin cleavage (nM IIa/min/nM E): 887
- Vmax/Et · Km (µM^-1 · s^-1), prothrombin cleavage: 3.1e+07 M⁻¹ s⁻¹
